Structures are written as SMILES.

The test system of one data set is PC-3. The experiment in a line: Antiproliferative activity against human PC3 cells after 72 hrs by MTT assay. Format: functional, cell-based. The essentials:
(§1)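 Cells pre-incubated 24 h at 37 °C in humidified 5% CO2, then exposed to compounds for 72 h. MTT (5 mg/mL) was added for 4 h, formazan was dissolved in DMSO, and OD was read at 570 nm. Vehicle control was 0.1% DMSO. IC50 was calculated from inhibition ratios as the mean ± SD of three independent experiments.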
(In general: Formazan colour is commonly taken as a measure of viable cells.)

The test system of a further data set is Bel-7402. The experiment in a line: Antiproliferative activity against human Bel7402 cells after 72 hrs by MTT assay. Format: functional, cell-based. Put shortly:
as §1

For a further data set, the system named is L02. The experiment in a line: Antiproliferative activity against human LO2 cells after 72 hrs by MTT assay. In kind it is cell-based. Put shortly:
as §1

The nature of data set [1]: Selectivity index, ratio of IC50 for human LO2 cells to IC50 for human Bel7402 cells.
The test system of another data set is Bel7402/5-FU. The experiment in a line: Antiproliferative activity against human Bel7402/5-FU cells after 72 hrs by MTT assay.

As a reminder, the IC50 is the concentration that inhibits the measured activity by half. High values mean lower potency, low ones higher potency. Regarding `O=C(O)c1ccc(N(CCCl)CCCl)cc1`, the IC50 with PC-3 was 57.3 µM; with Bel-7402, 46.5 µM; in the data set with L02, 68.6 µM; in the data set on Bel7402/5-FU, greater than 80 µM. The Ratio IC50 in data set [1] worked out at 1.5.

The record behind these values is ChEMBL document CHEMBL4196069 (Eur J Med Chem, 2018).
